Measured properties of organic chemicals

Values as listed in the OPERA 2.9 repository of K. Mansouri.

Melting points are in °C. The boiling point refers to atmospheric pressure (760 mmHg), by the definition of the set. logP is the log10 of the octanol-water partition coefficient; higher is more lipophilic. Water solubility is log10 of mol/L, nominally at 25 °C; higher is more soluble. Vapor pressures (log10 mmHg) refer to near room temperature, 15 to 30 °C; higher is more volatile. "–" marks a cell with nothing listed here.

structure (SMILES),name,mp (°C),bp (°C),log Kow,log solubility (log10 mol/L),log vapor pressure (log10 mmHg)
CN(C)C(=O)c1cc2cnc(Nc3ccc(N4CCNCC4)cn3)nc2n1C1CCCC1,Ribociclib,197,–,0.6,–,-9.869
CCN(CCNS(C)(=O)=O)c1ccc(N)c(C)c1.CCN(CCNS(C)(=O)=O)c1ccc(N)c(C)c1.O=S(=O)(O)O.O=S(=O)(O)O.O=S(=O)(O)O,–,–,–,-5.1,-3.25,–
CCCCc1ccc(Br)cc1,1-Bromo-4-butylbenzene,-26,–,5.4,-5.675,-2.031
C=CC(=O)OCCOC(=O)NC1CC(C)(C)CC(C)(CN=C=O)C1 (stereo not drawn),–,-38,–,–,–,-6.262
CC=C(Cl)C(=O)O,2-Chlorocrotonic acid,99.8,212,–,–,–
O=C1CCCCCCCCCOCCCCCO1,"1,7-Dioxacycloheptadecan-8-one",34,–,–,-3.884,-3.921
COc1cc(CC(C(C)=O)C(C)=O)ccc1O,"2,4-Pentanedione, 3-vanillyl-",82.23,–,1.43,-1.786,–
O=S(=O)([O-])c1ccc(/N=N/c2ccc(O)c(/N=N/c3ccc(S(=O)(=O)[O-])c4ccccc34)c2O)c2ccccc12.[Na+].[Na+],"C.I. Acid Brown 14, disodium salt",–,–,-2.019,-2.604,–
C=C1C(O)CC2CC1C2(C)C (stereo not drawn),"Bicyclo[3.1.1]heptan-3-ol, 6,6-dimethyl-2-methylene-",–,–,3.2,-2.096,-0.982
CC(C)CCCC(C)CCCC(C)CCCC(C)(O)C(O)CO (stereo not drawn),"3,7,11,15-Tetramethylhexadecane-1,2,3-triol",-6,–,–,-5.973,-5.712
CCCCCCCCCCCCCCCCN(C)C,"N,N-Dimethyl-1-hexadecanamine",–,–,6.91,–,-3.763
CCCCCCCCCCCCCOC(=O)c1ccc(C(=O)OCCCCCCCCCCCCC)c(C(=O)OCCCCCCCCCCCCC)c1,"Tri(tridecyl) benzene-1,2,4-tricarboxylate",-17,–,4.35,–,–
CC(C)CCOCCc1ccccc1,3-Methylbutyl 2-phenylethyl ether,–,–,–,-3.934,-1.604
C=C(C)C(=O)O[C@H]1C[C@@H]2CC[C@@]1(C)C2(C)C,Isobornyl methacrylate,–,–,5.09,-4.611,-1.148
NCCC(=O)N[C@@H](Cc1cnc[nH]1)C(=O)O,–,–,–,-3.625,0.23,-6.68
[N-]=[N+]=C1C=Cc2c(cccc2S(=O)(=O)Oc2ccc(C(=O)c3ccccc3)c(OS(=O)(=O)c3cccc4c3C=CC(=[N+]=[N-])C4=O)c2OS(=O)(=O)c2cccc3c2C=CC(=[N+]=[N-])C3=O)C1=O,–,–,–,–,-6.821,-7.033
C=CC(=C)CCCC(C)(C)O,2-Methyl-6-methylene-7-octen-2-ol,–,–,3.46,-2.772,-1.301
CCC(CC)C1CC(C)(O)CCO1 (stereo not drawn),"2H-Pyran-4-ol, 2-(1-ethylpropyl)tetrahydro-4-methyl-",-62.1,244.2,2.19,-1.916,–
CCOc1ccc(NC(=O)C(N=Nc2ccc(-c3ccc(N=NC(C(C)=O)C(=O)Nc4ccc(OCC)cc4)c(Cl)c3)cc2Cl)C(C)=O)cc1 (stereo not drawn),C.I. Pigment Yellow 152,310,–,1.1,–,–

2 of these entries, quoted again:

| structure (SMILES) | name | mp (°C) | bp (°C) | log Kow | log solubility (log10 mol/L) | log vapor pressure (log10 mmHg) |
|---|---|---|---|---|---|---|
| C=CC(=C)CCCC(C)(C)O | 2-Methyl-6-methylene-7-octen-2-ol | – | – | 3.46 | -2.772 | -1.301 |
| CCN(CCNS(C)(=O)=O)c1ccc(N)c(C)c1.CCN(CCNS(C)(=O)=O)c1ccc(N)c(C)c1.O=S(=O)(O)O.O=S(=O)(O)O.O=S(=O)(O)O | – | – | – | -5.1 | -3.25 | – |

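These are experimental values that the OPERA curators gathered from public databases to train and test their QSAR models. The files give a single number for a compound and property, which may rest on several reports. Method and conditions are not stated for these values. The measured form (salt, isomer or mixture) is not always the one drawn. Some upstream entries may be estimates or bounds without being marked so.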